The list shows a part of the results, in another mix than the full data. Active and inactive are the calls of the source.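 Rule for the calls: active = inhibition above the mean plus 3 SD, with well images judged a real hit on visual review (cut at about 60% in these data, passing the limit was not always enough); inconclusive = inhibition over the cutoff but images rejected on review; inactive = inhibition not above the cutoff.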
Experiment: insulin gene promoter suppression in islet cells – imaging, TRM-6 cells (human fetal islet line), eGFP reporter, cell count, primary screen (AID 1273)
Conditions: at 2 µM, stronger effect = higher value, reporter expression induced with tamoxifen

Structure (SMILES)	inhibition
CCOc1ncccc1C(=O)NCC1(N2CCOCC2)CCCCC1	inactive: -63.6%
CC(C)(C)OC(=O)N1CCC(Nc2ccccc2)CC1	inactive: -6.67%
CCC(CO)(C(=O)OC1CN2CCC1CC2)c1ccccc1 (centres undefined)	inactive: 30%
CCN1CCC(Nc2cccc(F)c2)CC1	inactive: 31.2%
CN(C)c1ccc(C(=O)NCC2(N3CCCCC3)CCCCC2)cc1	inactive: -340%
N#Cc1ccc(C(=O)NCC2(N3CCCCC3)CCCCC2)cc1	inactive: -25%
c1ccc(CN2CCC(Nc3ccccc3)CC2)cc1	inactive: 42.9%
COc1ccc(C(=O)NCC2(N3CCOCC3)CCCCC2)cc1OC	inactive: 12.5%
N/C(=N\O)c1c(N)no[n+]1[O-]	inactive: 45.5%
O=C(OC1CN2CCC1CC2)C1c2ccccc2C=Cc2ccccc21 (centres undefined)	inactive: -30.8%
COc1ccc(CN(CCCl)CCCl)cc1Cl	inactive: 18.8%
CC(C)c1ccc(NC2CCN(C(=O)OC(C)(C)C)CC2)cc1	inactive: 22.2%
CN1CCC(Nc2cccc(F)c2)CC1	inactive: -36.7%
CN1CCN(CCOC(=O)C(O)(c2ccccc2)c2ccccc2)CC1	inactive: 7.89%
COc1ccc(NC2CCN(C(=O)OC(C)(C)C)CC2)cc1	inactive: -28.6%
O=C(NCC1(N2CCOCC2)CCCCC1)c1cc(=O)[nH]c2ccccc12	inactive: 8.7%
COc1ccc(C(=O)NCC2(N3CCCCC3)CCCCC2)c(OC)c1OC	inactive: 0%
O=C(NCC1(N2CCOCC2)CCCCC1)c1cc2ccccc2o1	inactive: 46.4%
O=C(OC1CN2CCC1CC2)C1c2ccccc2Oc2ccccc21 (centres undefined)	inactive: 42.9%
